This note sets out measurements from patent US20250186592A1, “TETRAZINE CONJUGATES FOR IN VIVO TARGETED DELIVERY OF A PAYLOAD” (Tambo, Inc., priority 2021, published 2025).

For assay [1], the system named is HER2 positive cell line (NCI-N87 cell line). Briefly: FACS binding assay against HER2 positive cell line. The note with it: NCI-N87 cells, FIG. 7. Here is the method: Fab of trastuzumab was synthesized by plasmid construction, HEK293 cell expression and purification. The Fab-tetrazine conjugate (ADC) was prepared by reacting Me-Tet-PEG9-NHS (structure shown below, purchased from SiChem; catalog No. SC-8808) to primary amines on the Fab to form stable amide bonds. The ADC was tested by flow cytometry (FACS) to compare binding to HER2 positive cells in comparison with un-conjugated Fab.
FACS binding assay of trastuzumab Fab, Fab-Me-Tet-PEG9-NHS conjugate against HER2 positive cell line: Cells (NCI-N87 cell line) cultured in RPMI1640+10% FBS were collected by centrifugation, re-suspended with FACS buffer (PBS containing 2% FBS, pH 7.4) and adjusted to density of 2E6/mL. 100 μL (2E5) of cells was seeded into a 96 well plate, centrifuged at 400 g for 5 minutes, discarded the supernatant and resuspended with serially diluted Fab solution at 1:10 ratio from a 20 μL/mL stock solution. The Ab and cells were incubated at 4° C. for 1 hour before the cells were treated by centrifugation at 400 g for 5 minutes to remove the supernatant and washed 3 times with FACS buffer (200 μL/well). […]
(A flow cytometer gives signals particle by particle.)

Assay [2] concerns NCI-N87 xenograft. Briefly: Efficacy study in subcutaneous NCI-N87 xenograft model in CB17 SCID mice. The note with it: Group 3: Tz-Fab 50 mpk i.v. QW×2 weeks; day 35 after grouping; vehicle 1009 mm^3. The format is in vivo, mice (Mus musculus). Here is the method:
Methods: 110 CB17 SCID female mice (Mus musculus; age: 6-8 weeks; body weight: 18-22 g; Shanghai LingChang Biotech Co., LTD) were inoculated subcutaneously at right flank with NCI-N87 cells (3×10^6 cells was suspended in 0.2 mL mixture of 1640 with (1640: Matrigel=1:1) BD Matrigel for tumor development). After 7 days inoculation, 70 animals were divided into 8 groups with 10 animals in group 1, 2, 5, 6, 7 and 8, and with 5 animals in group 3 and 4 using stratified random grouping based on their body weight and tumor volume. The treatments were started from the mean tumor size reached to 158 mm^3 (106-221 mm^3) for these 70 mice. Group 1: Vehicle, i.v., QD×3×2 weeks. Group 2: MMAE, 0.25 mpk, i.v., QW×2 weeks. Group 3: Tz-Fab, 50 mpk, i.v., QW×2 weeks. Group 4: Compound A, 20 mpk, i.v., QD×3×2 weeks. Group 5: Tz-Fab, 50 mpk, i.v., QW×2 weeks+Compound A, 20 mpk, i.v., QD×3×2 weeks. Group 6: Tz-Fab, 50 mpk, i.v., QW×2 weeks+Compound A, 5 mpk, i.v., QD×3×2 weeks. Group 7: SQL70, 100 μL, i.t.×1 dose+Compound A, 1.9 mpk, i.v., QD×5. Group 8: T-DM1, 3 mpk, i.v., QW×2 weeks. The tumor sizes and body weight were measured twice a week during the treatment. The dosing schedule was finished on day PG-D10. […]
Statistical Analysis: The tumor volume between different groups was analyzed by two-way repeated measures ANOVA followed by the Tukey's post hoc test. All data were analyzed using GraphPad Prism 6.0. […]

Tz-Fab: the “binding activity in comparison to un-conjugated Fab” value in assay [1] was “comparable or slightly reduced binding activity”. Besides, in assay [2], the “mean tumor size on day 35” value is listed as 1043 mm^3.
